Assay outcomes deposited in PubChem BioAssay by National Center for Advancing Translational Sciences (NCATS).
G9a block: blocks human histone lysine methyltransferase G9a | G9a H3K9 monomethylation, AlphaScreen, 2 h | Potency, µM (highest dose often 102 µM), hits mostly inhibitors | 350,000 compounds, 8.8% hits | AID 504332; further: nearly all actives have a fitted effect of over 75% in size
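G9a (20 nM) preincubated 15 min RT with compounds, then 500 nM biotinylated H3K9 peptide and 20 uM SAM added; 2 h RT reaction. Monomethyl-H3K9 product detected by AlphaScreen with anti-H3K9me1 antibody, streptavidin donor and anti-rabbit IgG acceptor beads.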
Sfp PPTase inh: inhibitors of Bacillus subtilis Sfp phosphopantetheinyl transferase; 310,000 compounds, 3.5% hits; Biochemical Sfp PPTase activity, qHTS; Q9F4F7; Potency, µM, actives largely listed as inhibitors;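 further: the enzyme is Sfp with the accession as filed and its product quenches rhodamine fluorescence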
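Fluorescence-quenching assay with 15 nM Sfp, 5 uM rhodamine-CoA and 12.5 uM BHQ-2-labelled ybbR peptide in pH 7.6 Hepes/MgCl2 buffer. Enzyme was pre-incubated with compound for 15 min at room temperature. Rate was taken from the 30-min fluorescence change (525/598 nm).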
ALDH1A1 inh: blocks purified human ALDH1A1 activity. P00352. Purified ALDH1A1, NADH fluorescence, propionaldehyde substrate. Potency, µM (highest dose often 75.3 µM), hits mostly inhibitors. 220,000 compounds, 7.3% hits. AID 1030; active means well fitted inhibition curve with a large enough effect, not every such curve was filed as active; inconclusive means small, poorly fitted or top-dose-only effect, or another doubt; inactive means no such curve, though single readings can be large or run the other way
Lamin A splicing: modulators of lamin A splicing. 200,000 compounds, 0.01% hits. AID 1487. Potency, µM (titrated, usually from 46.1 µM), actives largely listed as inhibitors. HeLa LMNA splicing GFP/RFP minigene ratio, 48 h; active means well fitted inhibition curve with a large enough effect in the signal ratio, with a control signal flat, not every such curve was filed as active; inconclusive means small, poorly fitted or top-dose-only effect, or effect the other way, or a change in a side signal; the % refers to the signal ratio
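Read-out is the ratio of GFP to DsRed2 object intensity, acquired by 488 nm laser-scanning cytometry on HeLa lamin A-EGFP minigene reporter cells. Compound incubation 48 hrs at 37 °C in Opti-MEM with 2% FBS; DMSO 0.5% final.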
miR-21 reporter: raises the signal of a miR-21 reporter | Potency, µM (doses to about 38.3 µM) | HeLa miR-21 FLuc reporter, luciferase, 48 h | AID 2288 | 340,000 tested, under 10 active; active = well fitted rising curve with a large enough effect; inconclusive = small, poorly fitted or top-dose-only effect; inactive = no such curve, though single readings can be large or run the other way;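 also: miR-21 action dims this reporter so a rising signal means less miR-21 action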
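HeLa cells stably expressing CMV-driven firefly luciferase with a downstream miR-21 binding sequence, endogenously expressing miR-21, were treated with titrations (up to about 40uM final) for 48 hours at 37 degree Celsius. Luciferase luminescence was read after lysis.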
KDM4E inh: inhibitors of human JMJD2E histone demethylase. B2RXH2. AID 2147. JMJD2E catalytic domain, FDH-coupled NADH fluorescence (FDH is formaldehyde dehydrogenase). 230,000 compounds, 1.6% hits. Potency, µM (series often up to 57.1 µM), usual class: inhibitors; active means well fitted inhibition curve with a large enough effect, not every such curve was filed as active; inconclusive means small, poorly fitted or top-dose-only effect, or another doubt; inactive means no such curve, though single readings can be large or run the other way; further: nearly all actives have a fitted effect of over 50% in size
Numbers stand for hits; – = inactive; ? = inconclusive; · = not tested or not shown; [ ] = remark or other dose. Compounds with a hit are over-represented: about 13% of the library has one in this group of screens. Unless noted, the call rests on the fitted dose curve; in most records, active means well fitted curve in the direction sought with a large enough effect; inconclusive means small, poorly fitted or top-dose-only effect, or another doubt; inactive means no such curve, though single readings can be large; an effect the other way counts as inactive or inconclusive.

SMILES	G9a block	Sfp PPTase inh	ALDH1A1 inh	Lamin A splicing	miR-21 reporter	KDM4E inh
Cc1ccc2c(=O)cc(C(=O)Nc3ccc(S(=O)(=O)N(C)c4ccccc4)cc3)oc2c1C	–	·	·	·	–	·
O=C(Nc1ccnn1C1CCN(Cc2ccccc2OC(F)F)CC1)c1cccnc1	–	–	·	·	–	·
COc1cccc(-n2c(CN3CCN(c4cccc(C)c4)C(C)C3)nc3ccc([N+](=O)[O-])cc3c2=O)c1 (stereo not given)	–	–	?	–	–	–
COc1cccc(-n2c(CN3CCN(c4ccccn4)CC3)nc3ccc([N+](=O)[O-])cc3c2=O)c1	28.2µM	14.1µM	?	·	–	?
COc1ccc(OC)c(-n2c(CN3CCC(C(N)=O)CC3)nc3ccccc3c2=O)c1	?	35.5µM	20µM	–	–	–
O=C(Nc1ccc(C(=O)OCc2cc(=O)n3c4c(sc3n2)CCCC4)cc1)c1cccc(F)c1	–	·	·	?	–	·
COc1cc(OC)cc(C(=O)N2CCN(C3CCN(Cc4ccccc4)CC3)CC2)c1	2.51µM	?	?	–	–	?
COc1cc(OC)cc(C(=O)N2CCN(C3CCCCC3)CC2)c1	·	–	·	·	–	·
COc1cc(OC)cc(C(=O)N2CCC(N3CCCCCC3)CC2)c1	10µM	–	–	–	–	–
C=CCc1ccccc1OCc1nc2ccc(C)cc2[nH]1	–	·	·	·	–	·
O=C(CSc1cn[nH]n1)Nc1ccccc1C(=O)O	7.94µM	–	·	·	–	·
COc1ccccc1NC(=O)CSc1nc(N)c(C#N)cc1C#N	50.1µM	–	–	·	–	–
NC(=O)SCC(=O)Nc1ccccc1C(=O)O	50.1µM	17.8µM	–	·	–	–
Cc1ccccc1NC(=O)CSC(N)=O	?	14.1µM	0.794µM	–	–	–
O=C(CSc1ccccc1)Nc1ccccc1C(=O)O	–	–	–	?	–	–
COc1ccc(C)cc1NC(=O)NC(C)c1ccc2c(c1)OCO2 (stereo not given)	–	–	·	·	–	·
CC(C)Nc1ccc(-c2nc(-c3ccccn3)no2)cc1[N+](=O)[O-]	–	·	·	·	–	·
Cc1ccc2c(c1)c(=O)c(C(=O)c1ccncc1)cn2CC(=O)Nc1ccccc1Cl	–	·	·	–	–	·
NC(=O)c1ccccc1NC(=O)CSC1=NCCS1	50.1µM	–	·	·	–	·
COc1ccccc1NC(=O)CSC(N)=O	35.5µM	44.7µM	1.58µM	?	–	–
COc1ccccc1NC(=O)CCCCC(=O)Nc1ccccc1OC	–[0.501 µM]	–	·	·	–	·
Cc1ccc(Nc2nc(=O)c3cccnc3s2)cc1	–	–	–	?	–	–
CCN(c1ccccc1)c1nc(=O)c2cccnc2s1	35.5µM	–	20µM	–	–	–
O=C(Nc1ccc2c(c1)CCC2)c1cccc(S(=O)(=O)N2CCN(c3ccccc3)CC2)c1	10µM	–	–	–	–	?
CN(c1ccccc1)S(=O)(=O)c1cccc(C(=O)Nc2ccc3c(c2)CCC3)c1	–	–	10µM	?	–	–
SMILES	G9a block	Sfp PPTase inh	ALDH1A1 inh	Lamin A splicing	miR-21 reporter	KDM4E inh
O=C(NC1CCCc2ccccc21)c1cccc(S(=O)(=O)N2CCN(c3ccccc3)CC2)c1 (stereo not given)	–	–	–	?	–	–
Cc1c(Cl)cccc1NC(=O)CN1C(=O)COc2ccc(S(=O)(=O)N3CCCCCC3)cc21	–	·	·	·	–	·
CC(=O)Nc1nc(C)c(-c2csc(Nc3ccc(O)cc3)n2)s1	4.47µM	35.5µM	25.1µM	?	–	?
CCCC(=O)Nc1nc(C)c(-c2csc(Nc3ccc(Cl)cc3)n2)s1	–[0.501 µM]	–	?	–[0.0737 µM]	–	–
CC(=O)Nc1nc(C)c(-c2csc(Nc3ccccn3)n2)s1	–	–	?	?	–	?
CCC(C)C(=O)Nc1nc(C)c(-c2csc(Nc3ccc(Cl)cc3)n2)s1 (stereo not given)	–[0.501 µM]	–	22.4µM	–[0.0737 µM]	–	–
CC(=O)Nc1ccc(Nc2nc(-c3sc(NC(C)=O)nc3C)cs2)cc1	50.1µM	?	·	·	–	·
CCCCCn1c(=O)[nH]c2cc(C(=O)O)ccc2c1=O	–	–	?	–	–	?
CCCCCCn1c(=O)[nH]c2nc3cc(N)c(C)cc3nc2c1=O	3.55µM	?	–	–	–	–
CCOc1ccc(N2C(=O)CNC2=S)cc1	–	–	–	?	–	–
CCOc1ccc(N2C(=O)CS/C2=C(\C(Cl)=C(Cl)Cl)[N+](=O)[O-])cc1	31.6µM	–	22.4µM	–	–	–
CCC(Sc1nc2cc3c(cc2c(=O)n1Cc1ccco1)OCO3)C(=O)Nc1ccccc1OC (stereo not given)	–[12.7 µM]	?	1.12µM	–	–	–
CCN(CC)C(=O)CSc1nc2cc3c(cc2c(=O)n1Cc1ccco1)OCO3	–	–	0.891µM	–[9.22 µM]	–	–
CCC(Sc1nc2cc3c(cc2c(=O)n1Cc1ccco1)OCO3)C(=O)Nc1cccc(OC)c1 (stereo not given)	–[12.7 µM]	?	?	?	–	–
COCCNC(=O)CSc1nc2cc3c(cc2c(=O)n1Cc1ccco1)OCO3	–	–	12.6µM	–	–	–
COCCNC(=O)c1ccc2c(=O)n(Cc3ccco3)c(SCC(=O)NC3CCCC3)nc2c1	–	–	7.94µM	–	–	?
CC(=O)c1ccc(NC(=O)C(Cc2ccccc2)NS(=O)(=O)c2ccc3c(c2)CCC(=O)N3)cc1 (stereo not given)	–	·	·	·	–	·
CCC(Sc1nc2cc3c(cc2c(=O)n1Cc1ccco1)OCO3)C(=O)NCCOC (stereo not given)	–	–	2.24µM	–	–	–
CCOc1ccc(NC(=O)Cn2c(=O)n(Cc3ccco3)c(=O)c3ccc(C(=O)NC4CCCC4)cc32)cc1	–	·	·	·	–	·
CCOC(=O)Cn1c(=O)n(Cc2ccco2)c(=O)c2ccc(C(=O)NC3CCCC3)cc21	–	–	7.94µM	–	–	–
CCC/C=C1\CCCOC(C(=O)NCc2ccccc2)(C(F)(F)F)C1 (stereo not given)	·	–	·	·	·	·
COc1cc(C(=O)NCC(c2ccc(N(C)C)cc2)N2CCc3ccccc32)cc(OC)c1OC (stereo not given)	17.8µM	·	·	?	–	·
COc1ccc(C(=O)NCC(c2ccc(N(C)C)cc2)N2CCc3ccccc32)cc1OC (stereo not given)	25.1µM	·	·	?	–	·
O=[N+]([O-])c1ccc(S(=O)(=O)NCC(c2cccnc2)N2CCc3ccccc3C2)cc1 (stereo not given)	50.1µM	·	·	·	·	·
COc1cccc(C(=O)NCC(c2ccc(N(C)C)cc2)N2CCc3ccccc32)c1 (stereo not given)	10µM	·	·	?	–	·
COc1ccc(-c2oc3ccccc3c2C#Cc2cncn2C)cc1	–[0.501 µM]	·	·	·	·	·
COc1ccc(C(=O)NCC(c2cccnc2)N2CCc3ccccc3C2)cc1OC (stereo not given)	4.47µM	·	·	–	–	·
Cc1ccc(OCC(=O)N/N=C/c2cc([N+](=O)[O-])ccc2N2CCCCC2)cc1	?	–	?	–	–	–
